The chains behind the UniProt entries cited, without tags or fusion partners.
UniProt P15056, whole entry: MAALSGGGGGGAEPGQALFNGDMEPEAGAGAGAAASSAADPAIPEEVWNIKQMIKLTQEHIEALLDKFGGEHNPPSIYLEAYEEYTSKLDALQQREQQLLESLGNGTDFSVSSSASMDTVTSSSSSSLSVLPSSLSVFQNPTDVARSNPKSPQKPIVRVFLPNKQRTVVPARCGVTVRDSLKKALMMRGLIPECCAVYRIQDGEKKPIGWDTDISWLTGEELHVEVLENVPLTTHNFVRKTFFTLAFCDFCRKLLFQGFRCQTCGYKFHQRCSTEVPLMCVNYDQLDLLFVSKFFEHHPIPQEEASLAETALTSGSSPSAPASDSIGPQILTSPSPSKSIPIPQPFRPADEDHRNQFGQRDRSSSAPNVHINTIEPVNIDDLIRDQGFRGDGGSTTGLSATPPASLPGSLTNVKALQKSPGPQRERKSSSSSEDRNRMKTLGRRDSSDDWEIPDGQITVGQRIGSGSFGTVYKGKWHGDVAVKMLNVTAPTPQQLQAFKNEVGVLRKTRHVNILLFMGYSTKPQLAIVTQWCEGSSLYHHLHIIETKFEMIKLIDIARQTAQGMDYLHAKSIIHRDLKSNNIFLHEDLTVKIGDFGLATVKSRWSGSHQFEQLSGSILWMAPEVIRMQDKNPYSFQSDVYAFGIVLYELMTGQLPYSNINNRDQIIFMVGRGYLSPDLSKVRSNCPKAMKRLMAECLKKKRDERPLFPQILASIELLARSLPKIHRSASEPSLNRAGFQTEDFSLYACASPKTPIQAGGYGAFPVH

In patent US12139488B2, “Pyrido[3,2-d]pyrimidine compounds uses thereof for treating a proliferative disease” (Universite de Montreal, priority 2021, dated 2024):

Target: BRAF (Homo sapiens (Human), UniProt P15056)
Experiment: BRAF kinase activity assay (ADP-Glo)
Details: read-out: Kinase IC50 (nM) BRAF

SMILES | IC50
Cc1c(Cl)cccc1S(=O)(=O)Nc1ccc(F)c(Nc2ncnc3ccc(-n4cc(C(=O)N5CCN(C)CC5)c5ccccc54)nc23)c1F | < 1 nM
Cc1c(F)cccc1S(=O)(=O)Nc1ccc(F)c(Nc2ncnc3ccc(-n4cnc5c(-c6cccnc6)cccc54)nc23)c1F | 1 to 10 nM
Cc1c(Cl)cccc1S(=O)(=O)Nc1ccc(F)c(Nc2ncnc3ccc(-n4cnc5c(N)cccc54)nc23)c1F | < 1 nM
O=S(=O)(Nc1ccc(F)c(Nc2ncnc3ccc(-n4nnc5ccccc54)nc23)c1F)c1cccc(Cl)c1Cl | 1 to 10 nM

Same assay, conditions: read-out: Kinase IC50 (nM), BRAF biochemical kinase assay; BRAF

SMILES | IC50
CS(=O)(=O)C1CCN(c2cccc3c2nnn3-c2ccc3ncnc(Nc4c(F)ccc(NS(=O)(=O)c5cccc(Cl)c5Cl)c4F)c3n2)CC1 | 1 to 10 nM
Cc1c(Cl)csc1S(=O)(=O)Nc1ccc(F)c(Nc2ncnc3ccc(-n4cc(S(=O)(=O)N(C)CCN(C)C)c5ccccc54)nc23)c1F | < 1 nM
O=S(=O)(Nc1ccc(F)c(Nc2ncnc3ccc(-n4cnc5c(N6CCC7(CCCC7)CC6)cccc54)nc23)c1F)c1cccc(Cl)c1Cl | 1 to 10 nM
COCCOc1cccc2c1nnn2-c1ccc2ncnc(Nc3c(F)ccc(NS(=O)(=O)c4cccc(Cl)c4Cl)c3F)c2n1 | 1 to 10 nM
CCC1(O)CCN(c2cccc3c2ncn3-c2ccc3ncnc(Nc4c(F)ccc(NS(=O)(=O)c5cccc(Cl)c5Cl)c4F)c3n2)CC1 | < 1 nM
O=S(=O)(Nc1ccc(F)c(Nc2ncnc3ccc(-n4cnc5c(N6CCC(O)(C(F)(F)F)CC6)cccc54)nc23)c1F)c1cccc(Cl)c1Cl | 1 to 10 nM
